# From PubChem BioAssay AID493240 (Broad Institute, 2011)
# The list shows a part of the results, in another mix than the full data. Entries with a potency or affinity are not part of this list. Calls of active or inactive are those of the source. No rule for the calls is given here.
# Assay: SK-MEL-5 parental cell viability loss, dose response, orthogonal assay for MITF inhibitor project, CellTiter-Glo, cherry-picked, set 3 (AID 493240)
# Details: SK-MEL-5 viability, ATP luminescence (CellTiter-Glo), 24 h; at 35 µM (top of the series)
row,SMILES,"activity change, negative = viability loss"
1,O=[N+]([O-])c1cc([N+](=O)[O-])c(-c2ccn[nH]2)s1,inactive: -10.3%
2,CCc1nc2c(n1)c1c(non1O)c1c2no[n+]1[O-],inactive: -18.5%
